Values of other authors as cited in patent US20220331213A1, “ANTIMICROBIAL COMPOSITIONS COMPRISING A BENZOIC ACID ANALOG AND ACID PH BUFFERS” (eHealth Nexus LLC, priority 2021, published 2022).

Conditions: aqueous pKa

pKa (acid dissociation constant): ~4.75
Structure (SMILES): O=C(O)c1cccnc1 [nicotinic acid]
